Activity calls are given as the source filed them. The calls are words filed in the database; no cut-off is given here.
Assays:
[1] = target: Serine/threonine-protein kinase B-raf (Homo sapiens, UniProt P15056); assay: Inhibition of human wild type BRAF at 10 uM using myelin basic protein as substrate in presence of [gamma-33P]ATP incubated for 40 mins by scintillation counting method
[2] = system: Serine/threonine-protein kinase B-raf (Homo sapiens), P15056 [V600E]; assay: Inhibition of human BRAF V600E mutant at 10 uM using myelin basic protein as substrate in presence of [gamma-33P]ATP incubated for 40 mins by scintillation counting method
[3] = target: Serine/threonine-protein kinase/endoribonuclease IRE1 (Homo sapiens, UniProt O75460); assay: Inhibition of ERN1 (unknown origin) at 10 uM incubated for 1 hr by qPCR analysis
[4] = target: Mitogen-activated protein kinase 8 (Homo sapiens, UniProt P45983); assay: Inhibition of MAPK8 (unknown origin) at 10 uM incubated for 1 hr by qPCR analysis
[5] = target: Mitogen-activated protein kinase 14 (Homo sapiens, UniProt Q16539); assay: Inhibition of MAPK14 (unknown origin) at 10 uM incubated for 1 hr by qPCR analysis
[6] = target: Mitogen-activated protein kinase 11 (Homo sapiens, UniProt Q15759); assay: Inhibition of MAPK11 (unknown origin) at 10 uM incubated for 1 hr by qPCR analysis
[7] = target: Mitogen-activated protein kinase kinase kinase 20 (Homo sapiens, UniProt Q9NYL2); assay: Inhibition of ZAK (unknown origin) at 10 uM incubated for 1 hr by qPCR analysis
[8] = target: Homeodomain-interacting protein kinase 1 (Homo sapiens, UniProt Q86Z02); assay: Inhibition of HIPK1 (unknown origin) at 10 uM incubated for 1 hr by qPCR analysis
[9] = target: Tyrosine-protein kinase ABL1 (Homo sapiens, UniProt P00519); assay: Inhibition of ABL1 (unknown origin) at 10 uM incubated for 1 hr by qPCR analysis
[10] = target: Fibroblast growth factor receptor 1 (Homo sapiens, UniProt P11362); assay: Inhibition of FGFR1 (unknown origin) at 10 uM incubated for 1 hr by qPCR analysis
[11] = target: Receptor-type tyrosine-protein kinase FLT3 (Homo sapiens, UniProt P36888); assay: Inhibition of FLT3 (unknown origin) at 10 uM incubated for 1 hr by qPCR analysis

Sequences of proteins named here, by UniProt entry; tags and fusion partners are left off. A change or cut given only in a name is not applied to a line headed by its entry.
UniProt O75460: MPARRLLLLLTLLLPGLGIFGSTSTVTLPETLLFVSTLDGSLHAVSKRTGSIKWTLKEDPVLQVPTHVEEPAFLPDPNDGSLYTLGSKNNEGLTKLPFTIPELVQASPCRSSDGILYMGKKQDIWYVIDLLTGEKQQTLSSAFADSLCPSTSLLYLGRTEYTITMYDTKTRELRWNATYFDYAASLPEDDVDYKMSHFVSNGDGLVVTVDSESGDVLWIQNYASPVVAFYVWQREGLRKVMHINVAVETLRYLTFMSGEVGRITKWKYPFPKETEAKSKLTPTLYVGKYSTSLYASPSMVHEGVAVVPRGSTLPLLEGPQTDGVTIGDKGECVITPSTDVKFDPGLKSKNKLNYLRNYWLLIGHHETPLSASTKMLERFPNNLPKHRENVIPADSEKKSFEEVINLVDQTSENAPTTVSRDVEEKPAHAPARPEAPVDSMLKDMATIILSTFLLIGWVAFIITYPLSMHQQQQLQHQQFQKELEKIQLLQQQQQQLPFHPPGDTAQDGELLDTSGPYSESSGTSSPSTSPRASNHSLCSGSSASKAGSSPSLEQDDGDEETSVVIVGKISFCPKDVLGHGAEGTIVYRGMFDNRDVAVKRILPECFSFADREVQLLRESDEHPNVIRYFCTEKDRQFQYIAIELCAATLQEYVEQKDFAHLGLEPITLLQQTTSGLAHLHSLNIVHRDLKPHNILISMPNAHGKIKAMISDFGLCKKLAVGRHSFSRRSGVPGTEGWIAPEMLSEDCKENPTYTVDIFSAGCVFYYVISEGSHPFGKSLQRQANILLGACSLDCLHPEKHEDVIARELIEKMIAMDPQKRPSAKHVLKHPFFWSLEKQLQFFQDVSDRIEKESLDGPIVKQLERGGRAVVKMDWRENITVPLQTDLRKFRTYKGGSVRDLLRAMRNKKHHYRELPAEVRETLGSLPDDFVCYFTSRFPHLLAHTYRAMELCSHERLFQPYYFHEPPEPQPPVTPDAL
UniProt P45983: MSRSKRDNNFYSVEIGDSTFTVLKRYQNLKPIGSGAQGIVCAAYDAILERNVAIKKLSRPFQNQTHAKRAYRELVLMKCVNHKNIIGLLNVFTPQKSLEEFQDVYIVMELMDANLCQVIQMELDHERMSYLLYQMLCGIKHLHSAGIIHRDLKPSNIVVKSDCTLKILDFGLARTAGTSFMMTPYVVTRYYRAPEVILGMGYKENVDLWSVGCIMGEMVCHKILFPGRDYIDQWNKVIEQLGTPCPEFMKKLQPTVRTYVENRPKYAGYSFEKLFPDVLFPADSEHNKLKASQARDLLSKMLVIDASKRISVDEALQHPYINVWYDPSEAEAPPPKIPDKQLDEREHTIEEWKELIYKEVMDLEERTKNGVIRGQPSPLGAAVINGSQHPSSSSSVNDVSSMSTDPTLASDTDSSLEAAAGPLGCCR
UniProt Q16539, whole entry: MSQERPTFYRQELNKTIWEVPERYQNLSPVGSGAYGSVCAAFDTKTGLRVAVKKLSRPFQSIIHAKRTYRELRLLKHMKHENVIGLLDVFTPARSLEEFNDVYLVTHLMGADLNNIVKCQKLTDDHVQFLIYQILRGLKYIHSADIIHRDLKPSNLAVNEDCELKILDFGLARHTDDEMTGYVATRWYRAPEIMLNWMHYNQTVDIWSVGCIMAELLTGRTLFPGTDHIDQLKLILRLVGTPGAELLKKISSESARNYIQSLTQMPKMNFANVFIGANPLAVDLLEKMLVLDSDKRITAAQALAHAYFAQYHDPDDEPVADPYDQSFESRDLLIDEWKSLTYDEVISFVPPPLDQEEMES
UniProt Q15759, whole entry: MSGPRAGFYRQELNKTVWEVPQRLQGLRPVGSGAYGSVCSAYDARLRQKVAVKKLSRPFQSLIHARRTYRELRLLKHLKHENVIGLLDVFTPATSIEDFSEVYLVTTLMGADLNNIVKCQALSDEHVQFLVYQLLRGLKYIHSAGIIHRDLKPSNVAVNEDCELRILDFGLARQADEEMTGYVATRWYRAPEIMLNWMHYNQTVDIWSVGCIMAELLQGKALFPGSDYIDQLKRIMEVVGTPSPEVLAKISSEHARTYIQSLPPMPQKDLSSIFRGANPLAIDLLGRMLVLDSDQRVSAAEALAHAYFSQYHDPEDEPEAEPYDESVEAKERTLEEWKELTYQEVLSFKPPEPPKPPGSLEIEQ
UniProt Q86Z02: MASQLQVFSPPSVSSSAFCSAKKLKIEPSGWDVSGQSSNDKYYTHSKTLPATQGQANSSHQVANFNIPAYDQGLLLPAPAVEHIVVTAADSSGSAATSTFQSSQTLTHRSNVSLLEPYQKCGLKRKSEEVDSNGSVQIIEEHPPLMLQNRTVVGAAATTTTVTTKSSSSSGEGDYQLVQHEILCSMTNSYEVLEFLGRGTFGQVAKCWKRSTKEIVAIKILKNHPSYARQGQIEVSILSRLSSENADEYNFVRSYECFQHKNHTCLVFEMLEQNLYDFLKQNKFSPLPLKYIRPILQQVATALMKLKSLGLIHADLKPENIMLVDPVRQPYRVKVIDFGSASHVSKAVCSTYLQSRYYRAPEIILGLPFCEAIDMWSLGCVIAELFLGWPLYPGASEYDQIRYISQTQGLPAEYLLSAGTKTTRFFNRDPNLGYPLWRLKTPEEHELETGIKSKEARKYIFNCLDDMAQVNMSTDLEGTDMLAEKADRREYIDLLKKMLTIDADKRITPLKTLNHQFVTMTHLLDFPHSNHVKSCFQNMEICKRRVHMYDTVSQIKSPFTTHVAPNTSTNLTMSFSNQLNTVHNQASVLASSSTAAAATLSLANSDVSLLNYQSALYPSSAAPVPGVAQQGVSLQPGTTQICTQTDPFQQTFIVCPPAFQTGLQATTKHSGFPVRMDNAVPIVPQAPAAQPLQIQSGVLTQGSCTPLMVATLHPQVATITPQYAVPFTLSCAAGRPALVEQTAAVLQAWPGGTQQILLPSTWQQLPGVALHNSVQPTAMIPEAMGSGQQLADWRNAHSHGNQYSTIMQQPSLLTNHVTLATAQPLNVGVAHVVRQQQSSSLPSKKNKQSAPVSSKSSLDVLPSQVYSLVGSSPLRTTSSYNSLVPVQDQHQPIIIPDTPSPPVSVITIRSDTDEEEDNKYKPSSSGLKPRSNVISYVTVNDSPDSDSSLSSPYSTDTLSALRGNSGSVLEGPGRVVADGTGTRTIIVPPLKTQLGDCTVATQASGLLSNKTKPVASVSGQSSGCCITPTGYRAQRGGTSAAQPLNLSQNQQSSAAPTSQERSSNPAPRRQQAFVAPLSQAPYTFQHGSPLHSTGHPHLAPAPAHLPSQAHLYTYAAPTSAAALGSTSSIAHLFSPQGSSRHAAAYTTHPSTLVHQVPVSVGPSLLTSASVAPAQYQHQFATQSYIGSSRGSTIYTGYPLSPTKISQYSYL
UniProt P00519, whole entry: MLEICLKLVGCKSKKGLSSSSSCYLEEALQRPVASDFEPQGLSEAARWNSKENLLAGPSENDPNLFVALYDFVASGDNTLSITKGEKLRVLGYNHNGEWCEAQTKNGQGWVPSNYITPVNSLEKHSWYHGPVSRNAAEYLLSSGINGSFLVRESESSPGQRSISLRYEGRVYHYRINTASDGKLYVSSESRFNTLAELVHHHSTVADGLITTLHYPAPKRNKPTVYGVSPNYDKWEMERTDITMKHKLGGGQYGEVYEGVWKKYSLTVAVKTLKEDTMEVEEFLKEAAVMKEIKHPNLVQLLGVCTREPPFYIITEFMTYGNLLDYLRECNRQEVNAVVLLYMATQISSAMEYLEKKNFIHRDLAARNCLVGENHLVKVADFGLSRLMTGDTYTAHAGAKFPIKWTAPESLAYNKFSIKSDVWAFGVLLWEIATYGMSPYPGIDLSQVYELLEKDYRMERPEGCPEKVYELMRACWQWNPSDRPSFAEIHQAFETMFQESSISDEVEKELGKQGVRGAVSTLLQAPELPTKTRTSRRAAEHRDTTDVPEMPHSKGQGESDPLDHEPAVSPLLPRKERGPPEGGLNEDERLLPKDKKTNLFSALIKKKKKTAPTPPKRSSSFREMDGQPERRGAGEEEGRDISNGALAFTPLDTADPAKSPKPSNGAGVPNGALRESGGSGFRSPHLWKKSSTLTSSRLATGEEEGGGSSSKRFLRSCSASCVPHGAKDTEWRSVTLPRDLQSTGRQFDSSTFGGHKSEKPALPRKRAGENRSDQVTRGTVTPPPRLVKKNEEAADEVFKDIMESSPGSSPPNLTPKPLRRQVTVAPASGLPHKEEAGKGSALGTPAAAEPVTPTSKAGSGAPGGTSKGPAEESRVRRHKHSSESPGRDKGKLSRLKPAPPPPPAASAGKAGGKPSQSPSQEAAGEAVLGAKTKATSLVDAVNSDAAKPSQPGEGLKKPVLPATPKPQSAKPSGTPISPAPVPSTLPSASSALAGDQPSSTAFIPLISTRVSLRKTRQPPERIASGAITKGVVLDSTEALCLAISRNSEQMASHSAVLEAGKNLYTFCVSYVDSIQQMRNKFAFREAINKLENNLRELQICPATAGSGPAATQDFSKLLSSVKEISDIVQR
UniProt P11362, whole entry, looked up: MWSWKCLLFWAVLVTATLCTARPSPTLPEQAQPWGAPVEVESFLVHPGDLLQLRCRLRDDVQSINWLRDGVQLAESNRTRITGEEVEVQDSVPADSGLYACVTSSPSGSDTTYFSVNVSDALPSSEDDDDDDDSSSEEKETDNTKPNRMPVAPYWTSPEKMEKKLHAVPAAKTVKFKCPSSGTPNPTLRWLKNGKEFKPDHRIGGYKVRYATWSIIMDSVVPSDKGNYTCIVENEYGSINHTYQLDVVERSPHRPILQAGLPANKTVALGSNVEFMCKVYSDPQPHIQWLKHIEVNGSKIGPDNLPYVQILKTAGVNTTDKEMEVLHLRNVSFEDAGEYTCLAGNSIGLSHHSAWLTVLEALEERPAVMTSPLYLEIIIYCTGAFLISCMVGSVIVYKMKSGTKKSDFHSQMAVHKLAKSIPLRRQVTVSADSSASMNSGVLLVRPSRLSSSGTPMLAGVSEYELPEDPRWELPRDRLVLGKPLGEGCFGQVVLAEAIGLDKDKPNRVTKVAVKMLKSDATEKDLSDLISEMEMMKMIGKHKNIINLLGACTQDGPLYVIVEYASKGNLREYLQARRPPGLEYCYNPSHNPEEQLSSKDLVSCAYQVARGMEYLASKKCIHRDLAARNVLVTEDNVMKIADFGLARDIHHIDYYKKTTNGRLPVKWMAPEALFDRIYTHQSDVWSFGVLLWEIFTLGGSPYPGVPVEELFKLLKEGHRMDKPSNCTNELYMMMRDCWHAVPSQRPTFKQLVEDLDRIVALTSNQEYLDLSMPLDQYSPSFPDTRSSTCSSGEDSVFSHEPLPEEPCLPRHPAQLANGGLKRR
UniProt P36888, whole entry: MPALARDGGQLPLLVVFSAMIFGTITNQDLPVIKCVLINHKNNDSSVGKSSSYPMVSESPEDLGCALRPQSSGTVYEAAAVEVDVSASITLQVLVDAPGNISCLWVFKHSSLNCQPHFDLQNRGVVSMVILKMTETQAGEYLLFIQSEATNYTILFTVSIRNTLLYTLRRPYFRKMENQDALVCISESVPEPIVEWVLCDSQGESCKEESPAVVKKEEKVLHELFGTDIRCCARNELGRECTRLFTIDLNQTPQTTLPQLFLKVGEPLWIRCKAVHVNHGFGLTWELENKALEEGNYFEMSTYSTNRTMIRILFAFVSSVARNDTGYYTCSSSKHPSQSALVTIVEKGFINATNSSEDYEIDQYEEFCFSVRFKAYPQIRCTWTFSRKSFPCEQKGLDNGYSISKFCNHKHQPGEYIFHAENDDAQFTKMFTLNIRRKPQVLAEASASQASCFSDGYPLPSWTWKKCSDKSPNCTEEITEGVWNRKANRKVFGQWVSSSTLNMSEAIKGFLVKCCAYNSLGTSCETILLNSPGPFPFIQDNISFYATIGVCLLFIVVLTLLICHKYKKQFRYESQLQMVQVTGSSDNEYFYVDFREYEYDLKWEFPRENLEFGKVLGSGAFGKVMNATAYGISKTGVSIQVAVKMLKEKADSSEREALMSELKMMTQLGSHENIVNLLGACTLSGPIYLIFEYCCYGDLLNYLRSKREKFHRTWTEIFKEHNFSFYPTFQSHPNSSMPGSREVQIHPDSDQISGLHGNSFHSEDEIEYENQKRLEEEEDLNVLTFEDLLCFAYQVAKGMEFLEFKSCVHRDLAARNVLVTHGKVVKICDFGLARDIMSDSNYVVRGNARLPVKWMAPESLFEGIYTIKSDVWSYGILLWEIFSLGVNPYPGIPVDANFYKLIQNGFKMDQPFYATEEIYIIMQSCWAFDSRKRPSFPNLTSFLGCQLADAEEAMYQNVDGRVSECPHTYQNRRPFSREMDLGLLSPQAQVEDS

Question: For `COc1cccc(-c2nc3sccn3c2-c2ccnc(NCCN3CCN(Cc4ccccc4)S3(=O)=O)n2)c1`, which inhibition [1] is on record?
Answer: 95.3%

Question: What about the inhibition [2] of the same compound?
Answer: 96.2%

Question: Which inhibition [1] does the source give for `Cc1ccc(S(=O)(=O)NCCCNc2nccc(-c3c(-c4cccc(O)c4)nc4sccn34)n2)cc1` here?
Answer: 100%

Question: And the inhibition [2]?
Answer: 100%

Question: For `COc1ccc(-c2nc3sccn3c2-c2ccnc(NCCNS(=O)(=O)c3ccc(F)cc3)n2)cc1`, which inhibition [1] is on record?
Answer: 60.2%

Question: And the inhibition [2]?
Answer: 45.4%

Question: Which inhibition [1] does the source give for `COc1ccc(S(=O)(=O)NCCNc2nccc(-c3c(-c4cccc(OC)c4)nc4sccn34)n2)cc1` here?
Answer: 92.1%

Question: And the inhibition [2]?
Answer: 94.3%

Question: `COc1cccc(-c2nc3sccn3c2-c2ccnc(NCCN3CCNS3(=O)=O)n2)c1` was tested. Which inhibition [1] did it give?
Answer: 96.5%

Question: What about the inhibition [2] of the same compound?
Answer: 98.2%

Question: For `COc1cccc(-c2nc3sccn3c2-c2ccnc(NCCCNS(=O)(=O)c3ccc4ccccc4c3)n2)c1`, which inhibition [1] is on record?
Answer: 91.9%

Question: And the inhibition [2]?
Answer: 94.9%

Question: For `O=S1(=O)N(CCNc2nccc(-c3c(-c4cccc(O)c4)nc4sccn34)n2)CCN1Cc1ccccc1`, which inhibition [1] is on record?
Answer: 96.7%

Question: And the inhibition [2]?
Answer: 96.3%

Question: For `COc1cccc(-c2nc3sccn3c2-c2ccnc(NCCN3CCCN(C(=O)OC(C)(C)C)S3(=O)=O)n2)c1`, which inhibition [1] is on record?
Answer: 96%

Question: And the inhibition [2]?
Answer: 97.5%

Question: How did the inhibition [1] turn out when `Cc1ccc(S(=O)(=O)NCCNc2nccc(-c3c(-c4ccc(O)cc4)nc4sccn34)n2)cc1` was run?
Answer: 47%

Question: And the inhibition [2]?
Answer: 39.5%

Question: `COc1cccc(-c2nc3sccn3c2-c2ccnc(NCCCNS(=O)(=O)c3cccc(F)c3)n2)c1` was tested. Which inhibition [1] did it give?
Answer: 95.2%

Question: What about the inhibition [2] of the same compound?
Answer: 97.7%

Question: With `O=S(=O)(NCCNc1nccc(-c2c(-c3ccccc3)nc3sccn23)n1)c1ccc(F)cc1` as the compound, how does the inhibition [1] read?
Answer: 96.6%

Question: What about the inhibition [2] of the same compound?
Answer: 97.4%

Question: With `O=S1(=O)NCCN1CCNc1nccc(-c2c(-c3cccc(O)c3)nc3sccn23)n1` as the compound, how does the inhibition [1] read?
Answer: 98.9%

Question: And the inhibition [2]?
Answer: 99.2%

Question: `O=S(=O)(NCCCNc1nccc(-c2c(-c3ccccc3)nc3sccn23)n1)c1ccc(F)cc1` was tested. Which inhibition [1] did it give?
Answer: 98.5%

Question: What about the inhibition [2] of the same compound?
Answer: 99.2%

Question: With `COc1cccc(-c2nc3sccn3c2-c2ccnc(NCCCNS(=O)(=O)c3ccc(F)cc3)n2)c1` as the compound, how does the inhibition [1] read?
Answer: 97.5%

Question: And the inhibition [2]?
Answer: 98.4%

Question: With `O=S1(=O)NCCCN1CCNc1nccc(-c2c(-c3cccc(O)c3)nc3sccn23)n1` as the compound, how does the inhibition [1] read?
Answer: 99%

Question: And the inhibition [2]?
Answer: 99.6%

Question: With `COc1ccc(S(=O)(=O)NCCCNc2nccc(-c3c(-c4cccc(OC)c4)nc4sccn34)n2)cc1` as the compound, how does the inhibition [1] read?
Answer: 94.3%

Question: And the inhibition [2]?
Answer: 95.5%

Question: Which inhibition [1] does the source give for `Cc1ccc(S(=O)(=O)NCCNc2nccc(-c3c(-c4ccccc4)nc4sccn34)n2)cc1` here?
Answer: 92.5%

Question: What about the inhibition [2] of the same compound?
Answer: 94.9%

Question: `COc1cccc(-c2nc3sccn3c2-c2ccnc(NCCN3CCCNS3(=O)=O)n2)c1` was tested. Which inhibition [1] did it give?
Answer: 97.2%

Question: And the inhibition [2]?
Answer: 99.5%

Question: How did the inhibition [1] turn out when `Cc1ccc(S(=O)(=O)NCCCNc2nccc(-c3c(-c4ccccc4)nc4sccn34)n2)cc1` was run?
Answer: 96.5%

Question: What about the inhibition [2] of the same compound?
Answer: 97.7%

Question: What does the source list for `COc1ccc(S(=O)(=O)NCCNc2nccc(-c3c(-c4ccccc4)nc4sccn34)n2)cc1`?
Answer: inhibition [1]: 95.4%; inhibition [2]: 96.3%

Question: Which inhibition [1] does the source give for `COc1cccc(-c2nc3sccn3c2-c2ccnc(NCCCNS(=O)(=O)c3ccc(C)cc3)n2)c1` here?
Answer: 90.6%

Question: What about the inhibition [2] of the same compound?
Answer: 94.7%

Question: `COc1cccc(-c2nc3sccn3c2-c2ccnc(NCCN3CCN(C)S3(=O)=O)n2)c1` was tested. Which inhibition [1] did it give?
Answer: 96.8%

Question: What about the inhibition [2] of the same compound?
Answer: 97.6%

Question: What does the source list for `COc1cccc(-c2nc3sccn3c2-c2ccnc(NCCCNS(=O)(=O)c3ccccc3)n2)c1`?
Answer: inhibition [1]: 92.4%; inhibition [2]: 96.1%

Question: Which results are given for `COc1cccc(-c2nc3sccn3c2-c2ccnc(NCCNS(=O)(=O)c3ccc(C(F)(F)F)cc3)n2)c1`?
Answer: inhibition [1]: 94%; inhibition [2]: 98.2%

Question: Which results are given for `CN1CCCN(CCNc2nccc(-c3c(-c4cccc(O)c4)nc4sccn34)n2)S1(=O)=O`?
Answer: inhibition [1]: 98.6%; inhibition [2]: 99.3%

Question: What does the source list for `O=S(=O)(NCCNc1nccc(-c2c(-c3cccc(O)c3)nc3sccn23)n1)c1ccccc1`?
Answer: inhibition [1]: 97.9%; inhibition [2]: 98.6%

Question: How did the inhibition [1] turn out when `O=S(=O)(NCCNc1nccc(-c2c(-c3ccc(O)cc3)nc3sccn23)n1)c1ccc(O)cc1` was run?
Answer: 51%

Question: What about the inhibition [2] of the same compound?
Answer: 35.3%

Question: Which results are given for `O=S(=O)(NCCNc1nccc(-c2c(-c3ccccc3)nc3sccn23)n1)c1ccc(O)cc1`?
Answer: inhibition [1]: 99.6%; inhibition [2]: 99.2%

Question: Which results are given for `COc1ccc(S(=O)(=O)NCCCNc2nccc(-c3c(-c4ccccc4)nc4sccn34)n2)cc1`?
Answer: inhibition [1]: 97.3%; inhibition [2]: 98.6%

Question: For `O=S(=O)(NCCNc1nccc(-c2c(-c3cccc(O)c3)nc3sccn23)n1)c1ccc(F)cc1`, which inhibition [1] is on record?
Answer: 100%

Question: And the inhibition [2]?
Answer: 100%

Question: Which results are given for `O=S(=O)(NCCCNc1nccc(-c2c(-c3cccc(O)c3)nc3sccn23)n1)c1cccc(F)c1`?
Answer: inhibition [1]: 100%; inhibition [2]: 100%

Question: With `O=S(=O)(NCCCNc1nccc(-c2c(-c3cccc(O)c3)nc3sccn23)n1)c1ccccc1` as the compound, how does the inhibition [1] read?
Answer: 98.9%

Question: What about the inhibition [2] of the same compound?
Answer: 99.3%

Question: What does the source list for `COc1cccc(-c2nc3sccn3c2-c2ccnc(NCCNS(=O)(=O)c3ccc4ccccc4c3)n2)c1`?
Answer: inhibition [1]: 90.6%; inhibition [2]: 93.7%

Question: `COc1ccc(-c2nc3sccn3c2-c2ccnc(NCCNS(=O)(=O)c3ccc(C)cc3)n2)cc1` was tested. Which inhibition [1] did it give?
Answer: 35.2%

Question: What about the inhibition [2] of the same compound?
Answer: 31.3%

Question: Which results are given for `COc1cccc(-c2nc3sccn3c2-c2ccnc(NCCNS(=O)(=O)c3ccccc3)n2)c1`?
Answer: inhibition [1]: 90.2%; inhibition [2]: 95.6%

Question: With `COc1cccc(-c2nc3sccn3c2-c2ccnc(NCCN3CC(C)(C)NS3(=O)=O)n2)c1` as the compound, how does the inhibition [1] read?
Answer: 98.4%

Question: What about the inhibition [2] of the same compound?
Answer: 95.4%

Question: With `COc1cccc(-c2nc3sccn3c2-c2ccnc(NCCNS(=O)(=O)c3ccc(F)cc3)n2)c1` as the compound, how does the inhibition [1] read?
Answer: 95.2%

Question: And the inhibition [2]?
Answer: 96.9%

Question: What does the source list for `CC1(C)CN(CCNc2nccc(-c3c(-c4cccc(O)c4)nc4sccn34)n2)S(=O)(=O)N1`?
Answer: inhibition [1]: 98.7%; inhibition [2]: 96.5%

Question: Which inhibition [1] does the source give for `COc1cccc(-c2nc3sccn3c2-c2ccnc(NCCN3CCCN(C)S3(=O)=O)n2)c1` here?
Answer: 97.5%

Question: What about the inhibition [2] of the same compound?
Answer: 97.9%

Question: For `CC(C)(C)OC(=O)N1CCCN(CCNc2nccc(-c3c(-c4cccc(O)c4)nc4sccn34)n2)S1(=O)=O`, which inhibition [1] is on record?
Answer: 96.7%

Question: What about the inhibition [2] of the same compound?
Answer: 96%

Question: `COc1cccc(-c2nc3sccn3c2-c2ccnc(NCCNS(=O)(=O)c3cccc(F)c3)n2)c1` was tested. Which inhibition [1] did it give?
Answer: 94.9%

Question: And the inhibition [2]?
Answer: 96.7%

Question: Which results are given for `CN1CCN(CCNc2nccc(-c3c(-c4cccc(O)c4)nc4sccn34)n2)S1(=O)=O`?
Answer: inhibition [3]: Active; inhibition [4]: Active; inhibition [5]: Active; inhibition [6]: Active; inhibition [7]: Active; inhibition [8]: Active; inhibition [2]: 98.4%; inhibition [9]: Active; inhibition [10]: Active; inhibition [11]: Active

Question: How did the inhibition [1] turn out when `COc1ccc(-c2nc3sccn3c2-c2ccnc(NCCNS(=O)(=O)c3cccc4ccccc34)n2)cc1` was run?
Answer: 33.2%

Question: And the inhibition [2]?
Answer: 21.6%

Question: Which results are given for `COc1cccc(-c2nc3sccn3c2-c2ccnc(NCCNS(=O)(=O)c3ccc(C)cc3)n2)c1`?
Answer: inhibition [1]: 89.6%; inhibition [2]: 92.7%

Question: What does the source list for `COc1ccc(-c2nc3sccn3c2-c2ccnc(NCCNS(=O)(=O)c3ccc(OC)cc3)n2)cc1`?
Answer: inhibition [1]: 51.6%; inhibition [2]: 29.6%

Question: For `Cc1ccc(S(=O)(=O)NCCNc2nccc(-c3c(-c4cccc(O)c4)nc4sccn34)n2)cc1`, which inhibition [1] is on record?
Answer: 98.2%

Question: What about the inhibition [2] of the same compound?
Answer: 97.9%

From ChEMBL document CHEMBL5046217, “Discovery of New Imidazo[2,1-b]thiazole Derivatives as Potent Pan-RAF Inhibitors with Promising In Vitro and In Vivo Anti-melanoma Activity” (J Med Chem, 2021)
